PubChem BioAssay (NCI)
Only a part is listed here, and it is no random draw. Some salts or complexes appear as unconnected parts, following the source record. Calls of active or inactive are those of the source. No stated cut-off is given here; in the data, active means growth inhibition above about 70%; inactive means the rest.

experiment: NCI Yeast Anticancer Drug Screen. Data for the rad50 strain (AID 155);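 further: 0% = growth of vehicle-only cultures of the same strain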; details: S. cerevisiae rad50 strain growth inhibition; at 50.0 µM; stronger effect = higher value

| SMILES | growth inhibition |
| --- | --- |
| CS/C(=C/[S+](C)C)c1ccccc1.O=[N+]([O-])c1cc([N+](=O)[O-])c(S(=O)(=O)[O-])c([N+](=O)[O-])c1 | inactive: 55.2% |
| CC(C)OP(C)(=O)O.[Tl] | inactive: 5.85% |
| COc1ccc([N+](=O)[O-])cc1[N+](=O)[O-] | inactive: -21.6% |
| N/C(=N\[N+](=O)[O-])N(N)CCN(N)/C(N)=N/[N+](=O)[O-] | inactive: 6.75% |
| NN/C(N)=N/[N+](=O)[O-] | inactive: 21% |
| CCCCCCCCCCOP(=O)(Cl)CC (centres undefined) | inactive: -8% |
| NCCO.O=[N+]([O-])c1cc([N+](=O)[O-])c(O)c([N+](=O)[O-])c1 | inactive: -26.2% |
| COc1ccc2c3c1O[C@H]1C4(OC)CCC5(CC4C(C)(C)O)[C@@H](C2)N(C)CC[C@]315 (some centres undefined) | inactive: -24.1% |
| CCOP(C)(=S)Oc1ccc([N+](=O)[O-])cc1 (centres undefined) | inactive: 25.4% |
| CN/C(N)=N/[N+](=O)[O-] | inactive: 27.6% |
| [C-]#[O+].[Co].[c-]1[c-][c-][cH-][c-]1.c1ccc([PH+](c2ccccc2)c2ccccc2)cc1 | inactive: 1.15% |
| COC(=O)C(C)(C)C(OP(C)(=O)OC)=C(C)C (centres undefined) | inactive: -4.8% |
| O=[N+]([O-])c1cc([N+](=O)[O-])cc([N+](=O)[O-])c1.c1ccc(CCc2cccc3c2ccc2ccccc23)cc1 | inactive: 10.9% |
| O=[N+]([O-])c1cc([N+](=O)[O-])c(NNc2c([N+](=O)[O-])cc([N+](=O)[O-])cc2[N+](=O)[O-])c([N+](=O)[O-])c1 | active: 96.9% |
